Experimental data taken from patent US20120094998A1, “Oligomer-Protein Tyrosine Kinase Inhibitor Conjugates” (Nektar Therapeutics, priority 2009, published 2012).

The chains behind the UniProt entries cited, without tags or fusion partners. Residues count along the entry.
UniProt Q96GD4, whole entry: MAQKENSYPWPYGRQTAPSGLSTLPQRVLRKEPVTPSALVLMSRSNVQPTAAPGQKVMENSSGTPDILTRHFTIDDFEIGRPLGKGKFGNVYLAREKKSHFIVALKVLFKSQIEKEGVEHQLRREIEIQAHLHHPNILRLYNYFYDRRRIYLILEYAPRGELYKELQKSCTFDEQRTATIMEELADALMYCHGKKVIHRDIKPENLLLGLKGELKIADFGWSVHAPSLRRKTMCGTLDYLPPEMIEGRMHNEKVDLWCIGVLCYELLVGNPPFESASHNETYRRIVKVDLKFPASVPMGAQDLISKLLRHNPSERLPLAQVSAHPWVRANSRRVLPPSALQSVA
UniProt O75582, whole entry, species assumed: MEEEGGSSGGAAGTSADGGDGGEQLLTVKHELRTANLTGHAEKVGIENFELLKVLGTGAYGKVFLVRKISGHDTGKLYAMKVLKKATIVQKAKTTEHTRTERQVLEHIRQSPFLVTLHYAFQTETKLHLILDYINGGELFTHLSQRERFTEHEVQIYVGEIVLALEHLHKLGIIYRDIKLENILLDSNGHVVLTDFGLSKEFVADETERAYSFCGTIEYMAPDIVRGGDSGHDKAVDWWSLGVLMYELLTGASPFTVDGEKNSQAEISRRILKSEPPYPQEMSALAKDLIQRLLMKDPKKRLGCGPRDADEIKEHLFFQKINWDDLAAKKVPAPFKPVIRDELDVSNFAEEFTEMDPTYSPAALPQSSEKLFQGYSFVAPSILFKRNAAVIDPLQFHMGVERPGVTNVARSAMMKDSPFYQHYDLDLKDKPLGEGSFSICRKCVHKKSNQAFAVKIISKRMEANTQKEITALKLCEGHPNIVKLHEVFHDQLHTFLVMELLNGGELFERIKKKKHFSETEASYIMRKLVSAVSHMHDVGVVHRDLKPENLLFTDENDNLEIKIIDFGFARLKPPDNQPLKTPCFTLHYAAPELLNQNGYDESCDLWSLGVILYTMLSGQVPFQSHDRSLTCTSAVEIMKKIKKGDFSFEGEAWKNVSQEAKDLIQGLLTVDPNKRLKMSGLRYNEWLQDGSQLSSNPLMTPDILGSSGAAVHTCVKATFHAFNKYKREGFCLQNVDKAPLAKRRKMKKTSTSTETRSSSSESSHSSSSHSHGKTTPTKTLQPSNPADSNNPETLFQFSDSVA
UniProt P22607, 23-806, species assumed: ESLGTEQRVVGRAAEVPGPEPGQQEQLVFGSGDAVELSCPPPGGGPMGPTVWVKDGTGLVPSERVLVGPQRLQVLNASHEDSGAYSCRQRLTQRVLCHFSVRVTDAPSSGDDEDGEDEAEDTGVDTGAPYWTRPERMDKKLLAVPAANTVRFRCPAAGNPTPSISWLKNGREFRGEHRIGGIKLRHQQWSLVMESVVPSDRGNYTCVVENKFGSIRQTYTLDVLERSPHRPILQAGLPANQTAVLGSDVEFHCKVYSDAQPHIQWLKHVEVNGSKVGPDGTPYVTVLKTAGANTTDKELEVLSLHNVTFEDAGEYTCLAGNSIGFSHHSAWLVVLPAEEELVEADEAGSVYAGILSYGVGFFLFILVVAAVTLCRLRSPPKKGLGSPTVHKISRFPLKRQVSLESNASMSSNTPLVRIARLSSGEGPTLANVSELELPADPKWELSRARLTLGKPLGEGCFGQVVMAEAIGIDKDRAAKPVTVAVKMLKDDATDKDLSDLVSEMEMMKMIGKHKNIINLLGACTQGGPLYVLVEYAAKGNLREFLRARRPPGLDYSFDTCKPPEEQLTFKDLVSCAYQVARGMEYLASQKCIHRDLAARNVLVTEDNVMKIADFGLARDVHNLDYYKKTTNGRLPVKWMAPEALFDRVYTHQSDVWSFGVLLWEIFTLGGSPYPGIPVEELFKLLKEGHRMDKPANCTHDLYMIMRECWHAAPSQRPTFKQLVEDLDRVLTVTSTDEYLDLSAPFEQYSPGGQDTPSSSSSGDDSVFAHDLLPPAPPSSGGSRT
UniProt P49137, whole entry, species assumed: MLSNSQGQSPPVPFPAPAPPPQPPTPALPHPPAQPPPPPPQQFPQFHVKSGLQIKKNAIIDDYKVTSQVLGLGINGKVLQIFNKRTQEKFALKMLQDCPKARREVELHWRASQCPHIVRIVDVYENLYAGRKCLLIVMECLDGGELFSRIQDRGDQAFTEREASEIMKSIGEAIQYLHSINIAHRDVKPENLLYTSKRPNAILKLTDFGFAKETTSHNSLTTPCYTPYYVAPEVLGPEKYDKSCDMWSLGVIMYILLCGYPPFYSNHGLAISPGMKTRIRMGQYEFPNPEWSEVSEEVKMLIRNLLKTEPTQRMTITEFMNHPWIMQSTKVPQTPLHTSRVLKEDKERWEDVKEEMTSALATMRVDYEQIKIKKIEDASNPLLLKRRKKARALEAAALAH
UniProt P09619, 33-1106, species assumed: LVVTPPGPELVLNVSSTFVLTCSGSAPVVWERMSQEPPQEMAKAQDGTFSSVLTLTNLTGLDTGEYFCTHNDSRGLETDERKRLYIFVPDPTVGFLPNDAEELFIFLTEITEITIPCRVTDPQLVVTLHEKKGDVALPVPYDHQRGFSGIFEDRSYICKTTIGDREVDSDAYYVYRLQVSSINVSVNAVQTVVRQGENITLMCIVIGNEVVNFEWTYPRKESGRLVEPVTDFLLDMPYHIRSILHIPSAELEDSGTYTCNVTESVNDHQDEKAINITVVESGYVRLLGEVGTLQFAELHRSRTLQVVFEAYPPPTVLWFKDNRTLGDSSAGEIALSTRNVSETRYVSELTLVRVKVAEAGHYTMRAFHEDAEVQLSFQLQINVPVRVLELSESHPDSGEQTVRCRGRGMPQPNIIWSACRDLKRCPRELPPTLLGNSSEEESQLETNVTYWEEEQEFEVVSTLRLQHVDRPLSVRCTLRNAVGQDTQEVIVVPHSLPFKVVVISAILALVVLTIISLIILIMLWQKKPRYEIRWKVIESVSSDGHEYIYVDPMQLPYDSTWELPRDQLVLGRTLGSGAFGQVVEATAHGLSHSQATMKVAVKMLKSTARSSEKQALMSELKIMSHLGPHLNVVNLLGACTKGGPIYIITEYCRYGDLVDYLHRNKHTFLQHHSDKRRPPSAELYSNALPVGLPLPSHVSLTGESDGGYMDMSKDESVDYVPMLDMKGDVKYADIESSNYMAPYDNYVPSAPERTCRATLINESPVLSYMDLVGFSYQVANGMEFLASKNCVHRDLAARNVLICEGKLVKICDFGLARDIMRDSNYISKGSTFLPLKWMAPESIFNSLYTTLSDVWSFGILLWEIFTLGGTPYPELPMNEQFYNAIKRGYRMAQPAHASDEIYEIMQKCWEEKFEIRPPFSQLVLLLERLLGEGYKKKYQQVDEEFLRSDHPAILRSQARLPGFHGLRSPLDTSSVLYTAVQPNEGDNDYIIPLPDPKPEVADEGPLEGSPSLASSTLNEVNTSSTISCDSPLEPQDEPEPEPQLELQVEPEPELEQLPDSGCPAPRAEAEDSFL
UniProt P16234, 24-1089, species assumed: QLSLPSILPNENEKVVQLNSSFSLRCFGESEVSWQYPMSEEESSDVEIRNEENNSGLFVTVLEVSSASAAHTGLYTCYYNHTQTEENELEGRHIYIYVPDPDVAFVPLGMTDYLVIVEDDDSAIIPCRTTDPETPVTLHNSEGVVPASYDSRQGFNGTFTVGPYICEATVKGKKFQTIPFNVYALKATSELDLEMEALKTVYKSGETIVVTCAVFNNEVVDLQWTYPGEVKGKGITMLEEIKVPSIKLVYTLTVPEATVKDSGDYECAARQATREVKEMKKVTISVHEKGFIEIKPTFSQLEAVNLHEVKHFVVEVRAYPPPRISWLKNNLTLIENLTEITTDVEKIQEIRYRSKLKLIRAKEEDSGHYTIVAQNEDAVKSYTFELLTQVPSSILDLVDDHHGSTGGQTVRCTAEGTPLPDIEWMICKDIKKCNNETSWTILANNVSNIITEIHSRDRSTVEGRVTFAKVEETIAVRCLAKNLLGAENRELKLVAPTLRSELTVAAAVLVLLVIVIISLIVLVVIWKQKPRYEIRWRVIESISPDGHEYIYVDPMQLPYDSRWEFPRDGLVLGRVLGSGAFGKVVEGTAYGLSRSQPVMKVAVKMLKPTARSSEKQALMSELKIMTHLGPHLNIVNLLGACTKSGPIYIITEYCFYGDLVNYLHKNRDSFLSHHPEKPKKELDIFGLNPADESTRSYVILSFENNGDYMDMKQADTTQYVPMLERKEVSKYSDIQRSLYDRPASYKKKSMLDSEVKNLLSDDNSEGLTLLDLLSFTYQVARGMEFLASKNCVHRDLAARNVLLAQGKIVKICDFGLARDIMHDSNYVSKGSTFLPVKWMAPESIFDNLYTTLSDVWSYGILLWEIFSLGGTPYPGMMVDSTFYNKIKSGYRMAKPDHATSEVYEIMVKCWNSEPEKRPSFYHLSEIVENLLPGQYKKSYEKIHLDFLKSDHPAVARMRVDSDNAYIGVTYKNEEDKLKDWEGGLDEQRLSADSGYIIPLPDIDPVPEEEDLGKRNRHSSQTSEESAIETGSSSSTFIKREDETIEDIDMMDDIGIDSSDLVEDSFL

How the values were obtained:
AurB = AurB (Homo sapiens, UniProt Q96GD4); experiment: Activity against various protein tyrosine kinases: AurB; settings: read-out: % Inhibition at 10 nM
CHK1 = molecular target: T1, CHK1 (Homo sapiens, UniProt O14757); experiment: Activity against various protein tyrosine kinases: CHK1; settings: read-out: % Inhibition at 1 μM
T1 sequence (O14757 1-476): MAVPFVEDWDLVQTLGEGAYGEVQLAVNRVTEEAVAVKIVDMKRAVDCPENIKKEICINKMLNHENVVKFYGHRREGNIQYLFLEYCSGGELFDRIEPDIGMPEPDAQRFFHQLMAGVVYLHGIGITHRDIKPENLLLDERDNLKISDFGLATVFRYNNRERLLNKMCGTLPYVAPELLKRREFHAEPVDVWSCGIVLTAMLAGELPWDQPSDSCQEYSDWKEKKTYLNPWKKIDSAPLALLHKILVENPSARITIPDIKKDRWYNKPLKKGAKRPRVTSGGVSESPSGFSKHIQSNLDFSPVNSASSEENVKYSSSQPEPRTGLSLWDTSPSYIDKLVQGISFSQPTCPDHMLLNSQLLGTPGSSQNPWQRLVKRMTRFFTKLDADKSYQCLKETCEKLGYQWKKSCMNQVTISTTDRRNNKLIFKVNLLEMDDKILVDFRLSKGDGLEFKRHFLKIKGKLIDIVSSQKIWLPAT

MSK1 = MSK1 (Homo sapiens, UniProt O75582); experiment: Activity against various protein tyrosine kinases: MSK1; settings: read-out: % Inhibition at 10 nM
FGFR3 = FGFR3 (Homo sapiens, UniProt P22607); experiment: Activity against various protein tyrosine kinases: FGFR3
MAPKAPK2 = MAPKAPK2 (Homo sapiens, UniProt P49137); experiment: Activity against various protein tyrosine kinases: MAPKAPK2
PDGFR_beta = PDGFR_beta (Homo sapiens, UniProt P09619); experiment: Activity against various protein tyrosine kinases: PDGFR_beta
PDGFR_alpha = PDGFR_alpha (Homo sapiens, UniProt P16234); experiment: Activity against various protein tyrosine kinases: PDGFR_alpha; settings: read-out: % Inhibition at 1 μM
[1] = read-out: % Inhibition at 10 nM

Q: How did the inhibition at 0.01 µM (AurB) turn out when `Cc1nc(Nc2ncc(C(=O)Nc3c(C)cccc3Cl)s2)cc(N2CCN(CCO)CC2)n1` [Dasatinib, reference compound] was run?
A: 0%

Q: And the inhibition at 1 µM (CHK1)?
A: 0%

Q: And the inhibition at 0.01 µM (MSK1)?
A: 1%

Q: What about the inhibition at 0.01 µM (FGFR3; [1]) of the same compound?
A: 2%

Q: And the inhibition at 1 µM (FGFR3; read-out: % Inhibition at 1 μM)?
A: 9%

Q: What about the inhibition at 0.01 µM (MAPKAPK2; [1]) of the same compound?
A: -1%

Q: And the inhibition at 1 µM (MAPKAPK2; read-out: % Inhibition at 1 μM)?
A: 1%

Q: And the inhibition at 0.01 µM (PDGFR_beta; [1])?
A: 54%

Q: What about the inhibition at 1 µM (PDGFR_beta; read-out: % Inhibition at 1 μM) of the same compound?
A: 100%

Q: And the inhibition at 1 µM (PDGFR_alpha)?
A: 98%
